This note sets out measurements from ChEMBL document CHEMBL1138473, “NMR and molecular dynamics study of the binding mode of naphthalene-N-sulfonyl-D-glutamic acid derivatives: novel MurD ligase inhibitors” (J Med Chem, 2009).

A short description of this assay: Inhibition of Escherichia coli BL21-A1 MurD.

pIC50: −log10 of the molar value.

As for `N#Cc1ccc(COc2ccc3cc(S(=O)(=O)N[C@H](CCC(=O)O)C(=O)O)ccc3c2)cc1`, the pIC50 is 3.98.

One may read the pIC50 as the negative decadic logarithm of the IC50, by convention in mol/L. Lower therefore signals a large IC50.
